# Patent US10335417B2, “Thiazideamide derivative and use thereof” (Institute of Pharmacology and Toxicology Academy of …, priority 2015, dated 2019)
# System: MDCK-MDR1 cells
# Assay: MDCK-MDR1 cell monolayer drug transport experiment (apparent permeability, model of blood-brain barrier)
# Settings: HBSS, 37° C., direction not given
# Excerpt: MDCK-MDR1 cells were monolayer cells which highly express P-gp transporter after transfection of MDCK (Madin-Darby canine kidney epithelial cell) with MDR1 gene. Due to its density and high expression of efflux protein, the monolayer has similarity compared to blood-brain barrier (BBB) structure and now can be used as one of models for evaluating the ability of passing through BBB. In the invention, MDCK-MDR1 cells were used to study the membrane permeability of the compounds according to the invention, and to primarily evaluate its ability of passing through BBB.
# The frozen MDCK-MDR1 cells were quickly thawed in a 37° C. water bath. […]
# After washing with 37° C. […] The amount of Rho-123 permeated to the bottom well was determined by fluorospectrophotometer, wherein the emission wavelength was […], and the excitation wavelength was 530 nm. […]
# The apparent permeability coefficient (Papp) of a drug reflects the ability of the drug to pass through cell monolayer and the drug absorption rate and extent. It can be calculated in accordance with the following equation: […]
# wherein, Q represents the amount of drug permeated in the t period, A represents cell surface area, and represents the area (0.6 cm^2) of supporting film in this model, and C0 represents an initial concentration. The unit of Papp is expressed as cm·s^−1. […]
substance,measurement,value
Rhodamine 123 [reference compound],Papp (apparent permeability coefficient),4.89 ×10⁻⁶ cm/s
